Among the data in article PMC6651341, “EDB-FN Targeted Peptide–Drug Conjugates for Use against Prostate Cancer” (International Journal of Molecular Sciences, 2019) are cytotoxicity values, retold here.

What all share (details): 5 µM, after 72 h, triplicate
The subject of one data set is PC3. The data set can be described thus: MTS cell viability assay, PC3. In general terms: Tetrazolium assays rely on reduction of a dye to a coloured formazan, in cell work by metabolically active cells.
The subject of the next data set is LNCaP. Nature of the data set: MTS cell viability assay, LNCaP. Type of data set: cell-based, human. From the text:
(§1) CellTiter 96 was bought from Promega, Madison, WI, USA.

The next data set relates to C4-2. Nature of the data set: MTS cell viability assay, C4-2 without TGF-β. Type of data set: cell-based, human.
Source text: as §1

The next data set concerns DU-145. The data set can be described thus: MTS cell viability assay, DU-145. Type of data set: cell-based, human.
Source text: as §1

For data set [1], the system named is RWPE-1 normal human prostate epithelial cells. Nature of the data set: MTS cell viability assay, RWPE-1. Type of data set: cell-based.
Source text: as §1

As to “hydrazine-glutarate-GG-FK-C6-[CTVRTSADC] (disulfide) [compound 5]”, the cytotoxicity result (with PC3; in the data set on LNCaP; in the data set with C4-2; in the data set on DU-145; in data set [1]) was “did not show any significant cytotoxicity” throughout.

In the case of “hydrazine-glutarate-GG-VCit-C6-[CTVRTSADC] (disulfide) [compound 6]”, the cytotoxicity result (in the data set on PC3; with LNCaP; in the data set with C4-2; in the data set on DU-145; in data set [1]) was “did not show any significant cytotoxicity” throughout.
